Our source for the NGAL expression values is patent US20080274104A1, “Targeting a Secreted Pro-Apoptotic Factor for Cancer Therapeutics” (priority 2005, published 2008).

The assay relates to NGAL expression in SKBr3 cell line. Description: NGAL expression in breast cancer cell line. It is filed as cell-based, human. An excerpt:
As mentioned elsewhere herein, NGAL is a lipocalin 2 involved in inducing apoptosis in normal hematopoietic cells. The mouse form of NGAL (24p3) is required for marrow and spleen invasion in mouse leukemia models. […] Importantly, over expression of NGAL correlates with patients that have a poor prognosis. In microarray studies, 21 of 133 breast cancer patients expressed very high levels (6-10 fold) of NGAL mRNA. Higher expression of NGAL correlated with increasing tumor size (P<0.013). The correlation with ER negativity and NGAL expression was also significant (P<0.001). Similarly, there was a strong positive correlation with HER2/neu expression (P<0.003). In addition, HER2+ER− patients also had significant levels of HER2/neu (P<0.01). […] The level of NGAL protein expression in cells and conditioned medium (CM) was much higher in the SKBr3 human breast cancer cell line (HER2/neu+, ER−) than MCF-7 cells (HER2/neu-, ER+). […] The Herceptin HER2 antibody and PI-3 kinase inhibitor LY294002 inhibited NGAL expression in the SKBr3 cell line. Activated Akt was also needed for optimum expression of NGAL. NGAL transcriptional sequences contain a consensus NF-kB binding site and since Akt is known to activate NF-kB, the inventors predict that NGAL expression is mediated through NF-kB. […]

As to Herceptin: the anti-HER2 antibody, the NGAL expression entry is given as “inhibited”.
